Data taken from paper PMC8088467, “Tetrahedral DNA nanostructure improves transport efficiency and anti‐fungal effect of histatin 5 against Candida albicans” (Cell Proliferation, 2021).

Test: Serum stability test (MALDI‐TOF MS degradation profile of His‐5)
Assay type: in vitro ADME
Conditions: 10% foetal calf serum medium, peak area m/z 2900‐3000 / total area, His‐5:TDN ratio not given
Procedure: To verify stability of TDN/[…] complex in the serum medium, matrix-assisted laser desorption ionization time of flight mass spectrometry (MALDI-TOF MS) was utilized to assess the degradation profile of […]. […] and TDN/[…] incubated in the 10% foetal calf serum medium for 6h were measured by MALDI-TOF MS. And the proportions of peak areas (mass range from 2900 to 3000) to the total area in spectrum were calculated as the proportions of […] in the medium. The mass percentage of […] was calculated with following equation: […]5%=[…]×100% Initial […] and TDN/[…] in the 10% foetal calf serum medium were measured as control groups. And the proportions were compared between the TDN/[…] groups and […] groups.

For Histatin 5, the “Mass percentage of Histatin 5 [2900,3000], after degradation” value (incubated 6h) was 9.14% and the “Mass percentage of Histatin 5 [2900,3000], initial” value (initial sample (control, before incubation)) was 35.19%.
